Reference: ChEMBL document CHEMBL1773008 (ACS Med Chem Lett, 2010)

The chains behind the UniProt entries cited, without tags or fusion partners.
UniProt P08238, whole entry: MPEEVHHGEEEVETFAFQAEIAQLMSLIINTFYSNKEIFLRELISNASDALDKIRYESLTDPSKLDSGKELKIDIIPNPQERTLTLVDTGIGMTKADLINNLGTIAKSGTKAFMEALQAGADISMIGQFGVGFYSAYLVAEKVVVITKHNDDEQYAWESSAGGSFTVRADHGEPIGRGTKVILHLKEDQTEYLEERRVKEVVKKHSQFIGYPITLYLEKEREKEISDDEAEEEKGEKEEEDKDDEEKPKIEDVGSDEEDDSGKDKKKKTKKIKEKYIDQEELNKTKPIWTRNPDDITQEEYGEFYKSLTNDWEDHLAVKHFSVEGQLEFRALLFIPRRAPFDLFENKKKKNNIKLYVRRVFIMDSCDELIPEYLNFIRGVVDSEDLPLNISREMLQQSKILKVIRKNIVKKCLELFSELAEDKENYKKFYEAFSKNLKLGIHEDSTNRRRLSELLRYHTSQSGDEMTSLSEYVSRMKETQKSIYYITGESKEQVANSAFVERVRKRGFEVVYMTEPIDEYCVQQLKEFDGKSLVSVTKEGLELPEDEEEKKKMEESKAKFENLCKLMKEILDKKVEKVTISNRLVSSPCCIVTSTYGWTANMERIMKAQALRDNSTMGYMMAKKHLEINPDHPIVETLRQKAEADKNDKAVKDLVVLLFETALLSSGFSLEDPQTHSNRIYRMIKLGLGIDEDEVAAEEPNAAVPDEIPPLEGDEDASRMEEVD

Target: Heat shock protein HSP 90-beta (Homo sapiens) (UniProt P08238)
Assay: Binding affinity at Hsp90 C-terminal region in human SKBr3 cells
Format: cell-based

`CO[C@@H]1[C@@H](OC(N)=O)[C@@H](O)[C@H](Oc2ccc3c(O)c(NC(=O)c4ccc(O)c(CC=C(C)C)c4)c(=O)oc3c2C)OC1(C)C` showed an Activity of 700 µM.
